Assays:
[1] = biological target: T1, EphA4 (Homo sapiens, UniProt P54764); assay: inhibition of ephrin-AP fusion protein binding to immobilized Eph receptor Fc; settings: EphA2-binding peptides; ephrin-A5-AP and ephrin-A6-AP
T1 construct: immobilized EphA4 receptor extracellular domain fused to n human Fc region

Protein sequences, listed by entry. Tags and fused reporters are not part of them. Residues count along the entry.
UniProt P54764, 20-547 limits assumed, species assumed: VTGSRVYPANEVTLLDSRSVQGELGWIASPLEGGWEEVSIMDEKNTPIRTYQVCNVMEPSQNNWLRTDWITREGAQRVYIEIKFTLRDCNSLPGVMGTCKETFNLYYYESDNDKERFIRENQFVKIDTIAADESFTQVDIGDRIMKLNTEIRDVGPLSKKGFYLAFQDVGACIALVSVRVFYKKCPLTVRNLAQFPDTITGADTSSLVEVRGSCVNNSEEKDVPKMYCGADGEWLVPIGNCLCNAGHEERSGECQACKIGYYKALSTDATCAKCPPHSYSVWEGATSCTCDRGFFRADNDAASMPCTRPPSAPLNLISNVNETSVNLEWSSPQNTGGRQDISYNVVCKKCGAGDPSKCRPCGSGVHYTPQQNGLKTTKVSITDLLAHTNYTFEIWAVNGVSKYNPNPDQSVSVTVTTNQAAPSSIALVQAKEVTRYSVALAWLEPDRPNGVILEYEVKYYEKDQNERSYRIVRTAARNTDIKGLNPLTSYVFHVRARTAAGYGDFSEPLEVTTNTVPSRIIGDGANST

[2] = system: EphA receptors; assay: immobilized biotinylated synthetic peptide captures Eph receptor Fc fusion proteins, EphA panel; assay type: binding; settings: biotinylated peptide on streptavidin-coated wells
Method: In this example, immobilized SWL and YSA peptides were used to capture Fc fusion proteins of various EphA receptors. Biotinylated peptides were captured on streptavidin-coated microtiter plates (Pierce, Rockford, IL) and incubated with Eph receptor Fc fusion protein. Bound Eph receptors were detected with anti-human Fc antibody conjugated to alkaline phosphatase (AP) (Promega, Madison, WI). Alternatively, the immobilized biotinylated peptides were incubated with diluted cell culture supernatants containing EphA2-AP. Substrates were 2,2'-azino-bis(3-ethylbenzthiazoline-6-sulfonic acid) for horseradish peroxidase and p-nitrophenyl phosphate for AP. Absorbance at 405 or 450 nm was measured using an ELISA plate reader.

inhibition of binding of A-ephrins to immobilized EphA4 [1] | binding of immobilized synthetic peptide to other EphA receptors [2] | Compound
not EphA4 |  | CC(C)C[C@H](NC(=O)[C@H](Cc1c[nH]c2ccccc12)NC(=O)[C@@H](N)CO)C(=O)N[C@@H](C)C(=O)N[C@@H](Cc1ccc(O)cc1)C(=O)N1CCC[C@H]1C(=O)NCC(=O)N[C@@H](C)C(=O)N[C@H](C(=O)N[C@@H](CO)C(=O)N[C@@H](Cc1ccc(O)cc1)C(=O)N[C@@H](CCCNC(=N)N)C(=O)NCC(=O)N[C@@H](CO)C(=O)NCC(=O)N[C@@H](CO)C(=O)N[C@@H](CCCCNC(=O)CCCC[C@@H]1SC[C@@H]2NC(=O)N[C@@H]21)C(=O)O)C(C)C [SWL peptide]
 | bind promiscuously to all EphA receptors | A5 peptide: synthetic peptide corresponding to the A-A' β-strand of ephrin-A5 (KAVADRYAVYW)
 | bind promiscuously to all EphA receptors | A3 peptide: Twelve-mer synthetic peptide corresponding to the G-H loop of ephrin A3 (YSAFSLGYEFHA)
